{"sequences": {"note": "Protein sequences, listed by entry. Tags and fused reporters are not part of them.", "UniProt P19327, whole entry": "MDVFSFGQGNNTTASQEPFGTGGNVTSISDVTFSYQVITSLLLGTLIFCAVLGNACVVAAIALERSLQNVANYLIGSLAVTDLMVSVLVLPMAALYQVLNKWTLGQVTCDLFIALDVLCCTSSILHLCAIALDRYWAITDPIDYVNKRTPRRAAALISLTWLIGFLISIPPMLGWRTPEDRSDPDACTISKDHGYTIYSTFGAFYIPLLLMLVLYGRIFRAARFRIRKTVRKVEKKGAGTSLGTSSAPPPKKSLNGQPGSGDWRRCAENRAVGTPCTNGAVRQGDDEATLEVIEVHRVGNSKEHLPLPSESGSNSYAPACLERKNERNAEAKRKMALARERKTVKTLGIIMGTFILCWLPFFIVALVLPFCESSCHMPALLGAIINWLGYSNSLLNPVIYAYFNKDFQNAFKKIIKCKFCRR"}, "source": "ChEMBL document CHEMBL1129944", "about": "“[[(Arylpiperazinyl)alkyl]thio]thieno[2,3-d]pyrimidinone derivatives as high-affinity, selective 5-HT1A receptor ligands” (J Med Chem, 1997)", "target": "5-hydroxytryptamine receptor 1A (Rattus norvegicus, UniProt P19327)", "test": "In vitro inhibitory concentration against radioligand [3H]8-OH-DPAT binding to 5-hydroxytryptamine 1A receptor in rat hippocampal membrane.", "type": "cell membranes, Hippocampus", "method_in_brief": "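Rat hippocampal membranes (male SD rats, ~150 g) were washed in 50 mM Tris-HCl pH 7.4, including 10 min at 37 °C. Incubation buffer contained 4 mM CaCl2 and 10 μM pargyline. [3H]-8-OH-DPAT 1 nM final, 30 min at 25 °C; nonspecific binding defined by 10 μM 5-HT. Filtered onto GF/B and counted; 50% inhibitory concentration from fitted curves.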", "data": [{"molecule": "NCCc1c[nH]c2ccc(O)cc12", "note": "[SEROTONIN]", "values": [{"measurement": "IC50", "result": 3, "unit": "nM"}]}]}
